Rows were chosen to be rich in hits. Some 0.46% of all compounds tested hit in one or more screens of this group.
HCMV UL50-53 inh = inhibitors of HCMV UL50-UL53 nuclear egress complex interaction; 0.15% of 190,000 active; HTRF UL50-UL53 interaction, normalized percent inhibition; AID 1918969; inhibition, % (test concentration not listed); in the data active = inhibition above about 27%, passing the limit was not always enough
GIV-Gai inh = inhibitors of GIV peptide binding to Galpha-i3, primary screen, biochemical, fluorescence polarization, FITC-GIV GBA peptide, rat Galphai3; 90 min; stronger effect = lower value; scaled: aluminum fluoride 0%, vehicle 100%; percent of control (FP), % (test concentration not listed); 0.42% of 210,000 active; AID 1224905, 2016;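 active = replicate mean at 85% of control or lower, very high polarization wells dropped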;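 also: wells of about 15 µL received 100 nL stock; the first replicate is given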
Numbers without * were called inactive; nt = no result given.

molecule	HCMV UL50-53 inh	GIV-Gai inh
CCON1C(=O)c2ccccc2C1=O	-62.5	104.1
C[n+]1cccc2ccc(O)cc21	-53.0	-7.5*
Oc1ccc2ccccc2c1	-49.2	nt
Cc1ccc(-n2cc(C(=O)N3CCCC3)nn2)cc1	nt	99.9
CCOC(=O)c1c2c3c(cccc3[nH]c1=O)C(=O)c1ccccc1-2	-53.1	nt
Cc1ccc2c3c(c(N)c(=O)[nH]c13)-c1ccccc1C2=O	nt	75.5*
CC(=O)N1CCOc2ccc(S(=O)(=O)NCc3ccccc3)cc21	-21.4	103.1
CCCCCCc1cc2cc(-c3nnc(-c4cccc(Cl)c4)o3)c(=O)oc2cc1O	-49.0	7.6*
O=c1oc2ccccc2cc1-c1nnc(-c2cccc(Cl)c2)o1	5.4	101.3
N/C(Cc1nc2ccccc2s1)=N\O	51.8*	126.8

(more compounds)
molecule	HCMV UL50-53 inh	GIV-Gai inh
c1ccc2sc(CCc3nc4ccccc4s3)nc2c1	-9.4	nt
Cc1nc(-c2cccc(C(=O)N3CCN(c4nc5ncccc5o4)CC3)c2)no1	1.7	106.2
Oc1c(CN2CCCCCC2)cc(Cl)c2cccnc12	-24.8	nt
CN1CCc2c(sc3c2CN(C(=O)Nc2ccccc2)C(c2ccccc2)c2cccn2-3)C1 (stereo unspecified)	-9.2	117.7
COc1ccc(NC(=O)CSc2nc3c(cc2C#N)CCCC3)cc1	nt	103.4
Cc1cc(C)nc(NS(=O)(=O)c2ccc(NC(=O)CSc3nc4c(cc3C#N)CCCCC4)cc2)n1	27.9*	101.7
CC(C)N1CCN(C(=O)c2cc(-c3ccccc3)cc(S(=O)(=O)N3CCSCC3)c2)CC1	-18.4	nt
C=C1c2cccc(O)c2C(O)=C2C(=O)C3(O)C(O)=C(C(N)=O)C(=O)C(N(C)C)C3C(O)C12 (stereo unspecified)	103.9*	103.3
CN(C)C1C(=O)C(C(N)=O)=C(O)C2(O)C(=O)C3=C(O)c4c(O)ccc(Cl)c4C(O)C3CC12 (stereo unspecified)	-54.1	nt
CCN1C(=O)/C(=C\c2cccs2)SC1=Nc1cc(C)on1	-10.5	101.3

Going on with the list.
molecule	HCMV UL50-53 inh	GIV-Gai inh
COC(=O)/C=C/c1ccc2c(c1)OCO2	-16.9	nt
O=C(O)/C=C/c1ccco1	-1.2	100.8
CN(C)c1ccc(/C=C/C(=O)/C=C/c2ccco2)cc1	13.2	6.8*
CN(C)c1ccc(/C=C/C(=O)/C=C/c2ccc3c(c2)OCO3)cc1	nt	-63.7*
CC(C)CCCC(C)C1CCC2C3CC=C4CC(OC(=O)C(Cl)C(C)C)CCC4(C)C3CCC12C (stereo unspecified)	nt	110.6
Nc1c(Br)cc(Br)c2cccnc12	57.6*	97.1
NNC(=O)COc1c(Br)cc(Br)c2cccnc12	-17.2	nt
COc1ccccc1C(=O)C1C(=O)NC2(C)CC1c1cccc(OC)c1O2 (stereo unspecified)	-4.6	101.3
O=C(O)c1ccc(-c2ccc(/C=C3\Sc4ccccc4C3=O)o2)cc1	nt	-10.5*
O=C(O)c1cccc(-c2ccc(/C=C3\Sc4ccccc4C3=O)o2)c1	-86.1	-72.6*

The list continues:
molecule	HCMV UL50-53 inh	GIV-Gai inh
CCOC(=O)c1ccc(-c2ccc(/C=C3\Sc4ccccc4C3=O)o2)cc1	-18.4	115.7
COC(=O)c1cccc(-c2ccc(/C=C3\Sc4ccccc4C3=O)o2)c1	5.1	162.6
CCc1cccc(C)c1NC(=O)CSc1nc2ccccc2n2cnnc12	-26.5	101.2
CNC(=O)CNC(=O)Nc1ccc(Cl)c(Cl)c1	44.1*	nt
CS(=O)CCNC(=O)Nc1ccc(Cl)c(Cl)c1 (stereo unspecified)	nt	107.2
CCN(CC)S(=O)(=O)Cc1ccccc1	-7.3	108.9
CN1c2cc(Cl)ccc2-c2nc(SCC(=O)Nc3ccc(F)cc3F)ncc2S1(=O)=O	nt	103.8
CN1c2cc(Cl)ccc2-c2nc(SCC(=O)Nc3cc(F)ccc3F)ncc2S1(=O)=O	78.2*	109.9
CN1c2cc(Cl)ccc2-c2nc(SCC(=O)Nc3nccs3)ncc2S1(=O)=O	36.4*	106.7
Cc1ccc(NC(=O)CSc2ncc3c(n2)-c2ccc(Cl)cc2N(C)S3(=O)=O)cc1F	nt	102.7

Following part:
molecule	HCMV UL50-53 inh	GIV-Gai inh
N#CC1=C(N)C(C#N)(C#N)C(c2ccc(Cl)cc2)C2CN(Cc3ccccc3)CC=C12 (stereo unspecified)	nt	-57.5*
CC(=O)N1CC=C2C(C#N)=C(N)C(C#N)(C#N)C(Cc3ccccc3)C2C1 (stereo unspecified)	-24.1	101.5
CCCC1C2CN(Cc3ccccc3)CC=C2C(C#N)=C(N)C1(C#N)C#N (stereo unspecified)	-43.2	19.7*
CN1CC=C2C(C#N)=C(N)C(C#N)(C#N)C(CCc3ccccc3)C2C1 (stereo unspecified)	-34.4	-8.8*
CC(C)CC1C2CN(Cc3ccccc3)CC=C2C(C#N)=C(N)C1(C#N)C#N (stereo unspecified)	-27.0	120.8
N#CC1=C(N)C(C#N)(C#N)C(c2ccc(Br)cc2)C2CN(Cc3ccccc3)CC=C12 (stereo unspecified)	nt	164.9
c1ccc(-n2c3c(c4ccccc42)CCC3)cc1	-8.6	nt
COc1ccccc1N(Cc1nc2nc(C)cc(=O)n2[nH]1)C(=O)COc1ccccc1	-8.0	101.1
O=C(CSc1nnc2c3sc(N4CCCC4)nc3ncn12)Nc1ccc(F)cc1Cl	nt	103.7
CCCN1C(=O)/C(=C/c2ccc(CC)cc2)NC1=S	nt	103.8

Next section.
molecule	HCMV UL50-53 inh	GIV-Gai inh
CCCN1C(=O)/C(=C/c2cc(Br)c(O)c(OCC)c2)NC1=S	-65.0	-83.2*
O=C(Oc1ccc(F)cc1Cl)c1cc2ccccc2s1	nt	97.6
Cc1[nH]n(-c2ccccc2)c(=O)c1C1=c2ccccc2=NC1=O	67.7*	nt
CCc1cccc2c1=NC(=O)C=2c1c(C)[nH]n(-c2ccccc2)c1=O	0.9	103.8
CCOC(=O)N1CCC(NC(=O)C2CCCN(c3ncnc4c3sc3cccc(F)c34)C2)CC1 (stereo unspecified)	nt	103.1
CCOC(=O)N1CCC(NC(=O)C2CCN(c3ncnc4c3sc3cccc(F)c34)CC2)CC1	53.4*	101.4
COc1cc(C=C2C(=O)NC(=O)NC2=O)cc(Cl)c1OCC(=O)O	71.6*	95.9
COc1cc(C=C2C(=O)NC(=O)NC2=O)ccc1OCC(C)C	-3.3	97.6
COc1cc(C=C2C(=O)NC(=O)NC2=O)cc(Br)c1OCC(C)C	87.0*	104.8
COc1cc(C=C2C(=O)NC(=S)NC2=O)ccc1OCC(=O)O	nt	98.7

The list goes on:
molecule	HCMV UL50-53 inh	GIV-Gai inh
COc1cc(C=C2C(=O)NC(=O)NC2=O)cc(Cl)c1OCc1ccc(Cl)cc1	71.9*	86.5
COc1cc(C=C2C(=O)NC(=O)NC2=O)cc(Cl)c1OCCOc1ccccc1C	61.4*	91.6
COc1cc(C=C2C(=O)NC(=O)NC2=O)cc(Br)c1OCc1ccccc1Cl	7.2	104.5
COc1cc(C=C2C(=O)NC(=S)NC2=O)cc(Cl)c1OCCOc1ccccc1C	-16.2	96.8
CCN1CCN(c2ccc([N+](=O)[O-])cc2C(=O)Nc2ccc(OC(F)(F)F)cc2)CC1	nt	104.0
CN(C)c1cc(OC2CCN(C(=O)c3ccsc3)C2)ncn1 (stereo unspecified)	nt	97.8
Cc1cc(C)n(-c2n[nH]c(=S)c3ccccc23)n1	-19.7	98.9
O=C(NCC1CCCCC1)C1CCN(c2cncnc2N2CCOCC2)CC1	nt	107.3
CCCCOc1ccc(-c2nc(C=Nc3ccc(C)cc3Br)c(O)o2)cc1	nt	107.3
CCC(C(=O)NCCCN(C)c1ccccc1)N1C(=O)CCn2nc(C)cc21 (stereo unspecified)	-8.6	106.0
N#CC1C2=C(CCCC2)SC1NC(=O)c1cc2ccccc2oc1=O (stereo unspecified)	8.8	nt
COc1ccccc1OCCOc1c(Cl)cc(C=C2C(=O)NC(=O)NC2=O)cc1OC	63.0*	106.0

3 of the entries above in order of their number in GIV-Gai inh, ascending:
| compound | GIV-Gai inh |
| --- | --- |
| COc1cc(C=C2C(=O)NC(=O)NC2=O)cc(Cl)c1OCCOc1ccccc1C | 91.6 |
| COc1cc(C=C2C(=O)NC(=O)NC2=O)cc(Br)c1OCc1ccccc1Cl | 104.5 |
| O=C(NCC1CCCCC1)C1CCN(c2cncnc2N2CCOCC2)CC1 | 107.3 |

Entries of single compounds, looked up by structure:
O=C(NCC1CCCCC1)C1CCN(c2cncnc2N2CCOCC2)CC1 is listed as HCMV UL50-53 inh: nt; GIV-Gai inh: 107.3
COc1cc(C=C2C(=O)NC(=S)NC2=O)cc(Cl)c1OCCOc1ccccc1C is listed as HCMV UL50-53 inh: -16.2; GIV-Gai inh: 96.8

High-throughput results as filed in PubChem BioAssay.
